Measured values as given in paper PMC10384010, “Chromatographic Data in Statistical Analysis of BBB Permeability Indices” (Membranes, 2023).

Legend:
[1] = Normal-phase TLC on silica gel 60 F254 (Rf); assay type: physicochemical; details: pH 7.4
[2] = Reversed-phase TLC on RP-2 silanized plates (Rf); assay type: physicochemical; details: pH 7.4
[3] = cited from earlier work
[4] = in vivo; cited from earlier work
[5] = entering the CNS / not entering the CNS; ref Drugbank [36]; cited from earlier work

Compound	NP (Rf from NP TLC plate) [1]	RP (Rf from RP-2 TLC plate) [2]	PB (protein binding) [3]	Kp,uu,brain (unbound brain-to-plasma drug partition coefficient) [4]	CNS+/- [5]
Cc1cc2c(s1)Nc1ccccc1N=C2N1CCN(C)CC1 [olanzapine]	0.28	0.53	0.175	2.13	–
CN1C(=O)CN=C(c2ccccc2)c2cc(Cl)ccc21 [diazepam]	0.95	0.77	–	–	–
Cc1nc2n(c(=O)c1CCN1CCC(c3noc4cc(F)ccc34)CC1)CCCC2 [risperidone]	0.29	0.62	–	0.21	–
NCC1(CC(=O)O)CCCCC1 [gabapentin]	–	–	–	–	1
